The results in this text go back to paper PMC4080885.

Sequences of proteins named here, by UniProt entry; tags and fusion partners are left off. Residues count along the entry.
UniProt P12318, 34-317: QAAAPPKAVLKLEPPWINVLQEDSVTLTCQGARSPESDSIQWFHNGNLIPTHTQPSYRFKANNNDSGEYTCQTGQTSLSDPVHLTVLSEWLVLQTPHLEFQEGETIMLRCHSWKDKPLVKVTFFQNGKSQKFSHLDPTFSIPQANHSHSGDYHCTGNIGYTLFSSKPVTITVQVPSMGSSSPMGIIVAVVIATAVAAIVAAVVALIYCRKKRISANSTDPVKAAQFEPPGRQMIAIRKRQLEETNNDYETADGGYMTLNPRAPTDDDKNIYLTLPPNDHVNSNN

Where two headings read alike, the source gives them in different places.

What all share (assay): flow cytometry on cells
For orientation: A flow cytometer gives signals particle by particle.

Test [1] addresses M. nemestrina FcγRIIa allele 1 (Macaca nemestrina).
Test [2] addresses mnFcγRIIa-allele2 HLD +LF (Mutant 5: PMN→HLD with PY→LF) (Macaca nemestrina).
Test [3] addresses human FcγRIIa-His131 (human) (UniProt P12318).
Test [4] concerns the target mnFcγRIIa-allele2 HLD (Mutant 3: P131H, M132L, N133D) (Macaca nemestrina).
Test [5] has as its target M. nemestrina FcγRIIb1 (Macaca nemestrina).
The target in test [6] is M. nemestrina FcγRIIa allele 2 (Macaca nemestrina).
Test [7] has as its target human FcγRIIa-His131 (human) (UniProt P12318). This is another data set of the same source.

For the substance human myeloma IgG2κ (antibody), the MFI in test [1] worked out at 360; in test [3], 3600; in test [4], 300. In test [2], this substance gave a fold increase of binding against mnFcγRIIa-allele2 HLD of 10 fold.

On to human myeloma IgG1κ (antibody), for which the MFI in test [1] was 5000; in test [3], 57200; in test [4], 2900. The substance also came in with a fold greater binding than huFcγRIIb in test [5] of 10 fold. In test [2], this substance returned a fold increase of binding against mnFcγRIIa-allele2 HLD of 5 fold.

human myeloma IgG3κ (antibody): the MFI turned out to be 70300 in test [1]; 11600 in test [6]; 71000 in test [7]; 70100 in test [3]; 53400 in test [4].
